Binding of CDR-mutated scFvs to a peptide of the spike HR2 region

Antigen: PDVDLGDISGINAS, a 14-residue peptide of the SARS-CoV-2 spike HR2 region.

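Phage display of a naive human antibody library on the peptide gave the parent. In library AAYL50, one, two or three CDR residues were substituted; doubles and triples were drawn at random. AlphaSeq pools MATa yeast showing the antibodies with MATalpha yeast showing the peptide. Pairs that bind mate more often; barcode pairs of the diploids are counted by sequencing. The ratio of observed to expected reads was calibrated, replicate by replicate, on BCL2-family standards whose Kd was known from biolayer interferometry. The assay was run in three technical replicates.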

Parent scFv Ab-14: VH joined to VL by a 15-residue (Gly4Ser)3 linker. Changes lie in the light chain CDRs alone.
VH: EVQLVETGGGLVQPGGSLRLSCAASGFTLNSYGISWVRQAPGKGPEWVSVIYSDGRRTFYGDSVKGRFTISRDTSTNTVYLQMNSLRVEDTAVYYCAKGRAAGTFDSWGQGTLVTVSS
VL: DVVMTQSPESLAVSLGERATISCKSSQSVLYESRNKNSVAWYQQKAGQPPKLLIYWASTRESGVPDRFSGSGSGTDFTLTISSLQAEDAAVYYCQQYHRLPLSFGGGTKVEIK

Changes read parent residue, position, new residue, counted from the first residue of the VL shown.
Every variant below is changed at Y97 of the VL (sequential numbering).
Kd is apparent (estimated from mating counts) and averaged on the log scale over replicates with a signal. Smaller is tighter.
Where no diploid with the target was found in any replicate, the entry reads "nd": below detection, most likely a poor binder, though not proof of it.
The list is sorted by this average, lowest first, undetected variants last.

The variant S25K+W56G+Y97G showed 590 pM (3 of 3 replicates).
The variant S28E+V29W+Y97T showed 1.7 nM (3 of 3 replicates).
The variant Y97G+R99I+L100K showed 6.2 nM (3 of 3 replicates).
The variant R34I+Y97T showed 8.1 nM (3 of 3 replicates).
The variant W56M+Y97Q+H98I showed 10 nM (3 of 3 replicates).
The variant Q96D+Y97R+S103G showed 81 nM (3 of 3 replicates).
The variant S33H+A57E+Y97R showed 88 nM (3 of 3 replicates).
The variant Y97L+R99M showed 150 nM (3 of 3 replicates).
The variant N35V+S58V+Y97W showed 490 nM (2 of 3 replicates).
The variant Q27I+S33V+Y97H showed 980 nM (1 of 3 replicates).
The variant L30N+E32S+Y97D showed 1.1 µM (2 of 3 replicates).
The variant A40T+W56V+Y97L showed 1.8 µM (2 of 3 replicates).
The variant S25R+Q96H+Y97T showed 1.8 µM (2 of 3 replicates).
The variant T59V+Y97F showed 3.3 µM (3 of 3 replicates).
The variant K36S+A40R+Y97M showed 3.4 µM (2 of 3 replicates).
The variant A57R+S62H+Y97W showed 6.7 µM (2 of 3 replicates).
The variant V39M+W56I+Y97A showed 7.8 µM (3 of 3 replicates).
The variant S28I+Y97G+S103H showed 8.8 µM (2 of 3 replicates).
The variant R60P+Y97E+S103Q showed 13 µM (1 of 3 replicates).
The variant R34Y+S62K+Y97A showed 48 µM (2 of 3 replicates).
The variant Y31V+Y97V+S103E showed 48 µM (2 of 3 replicates).
The variant Y31K+S33K+Y97H showed 64 µM (1 of 3 replicates).
The variant S28P+Q95W+Y97G showed 66 µM (2 of 3 replicates).
The variant E61P+Q95Y+Y97P showed 280 µM (1 of 3 replicates).
The variant L30G+Y97V+H98Y showed 1.5 mM (1 of 3 replicates).
The variant T59C+Y97S showed nd (0 of 3 replicates).
The variant S28D+V39E+Y97E showed nd (0 of 3 replicates).
The variant S28E+Q95I+Y97K showed nd (0 of 3 replicates).
The variant N35I+E61R+Y97R showed nd (0 of 3 replicates).
The variant W56Q+Y97T+L102H showed nd (0 of 3 replicates).
The variant N35K+Y97M showed nd (0 of 3 replicates).
The variant A57R+S58K+Y97H showed nd (0 of 3 replicates).
The variant K24L+N35Y+Y97T showed nd (0 of 3 replicates).
The variant N35A+V39W+Y97M showed nd (0 of 3 replicates).
The variant E61V+Y97C+L102F showed nd (0 of 3 replicates).
The variant S33G+N37W+Y97E showed nd (0 of 3 replicates).
The variant V29E+Y97Q+P101E showed nd (0 of 3 replicates).
The variant S28N+R60G+Y97R showed nd (0 of 3 replicates).

Extract of 5 entries:

N35A+V39W+Y97M: nd (0 of 3 replicates).
L30G+Y97V+H98Y: 1.5 mM (1 of 3 replicates).
N35V+S58V+Y97W: 490 nM (2 of 3 replicates).
A40T+W56V+Y97L: 1.8 µM (2 of 3 replicates).
K24L+N35Y+Y97T: nd (0 of 3 replicates).

Parent in this assay: reference entry 4.4 nM, copy in this library 48 nM.
Three control strains display no target. For library AAYL50, 18% of the pairings with them gave a signal, with a median of 15 µM and one signal in twenty below 970 nM, so weak values seen in few replicates may be background.

Values reported by Engelhart et al. 2022, doi:10.1038/s41597-022-01779-4 (FLAb copy).